# Hits are enriched below; roughly 0.43% of the tested compounds scored in any of these assays.
# EPAC2 agonist: qHTS for Agonist of cAMP-regulated guanine nucleotide exchange factor 4 (EPAC2): primary screen; Potency, µM (doses to about 154 µM), for inactives: at the top dose activation, usual class: activators; EPAC2 activation, biochemical qHTS; response scale: 100% = 6.5 mM cAMP response; hit rate 0.079% among 360,000; also: nearly all actives have a fitted effect of over 50% in size
#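 Setup: EPAC2 100 nM, labeled Rap1B complex 250 nM, free GDP 50 uM. Compound titrations pinned in, brief spin, 5 min room temperature incubation. Kinetic fluorescence read over 30 min, normalized to 6.5 mM cAMP.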
# Rango release inh: qHTS Assay for Inhibitors of RanGTP induced Rango (Ran-regulated importin-beta cargo) - Importin beta complex dissociation; Snurportin-1 (Homo sapiens) + GTP-binding nuclear protein Ran (Homo sapiens) + Importin …; Biochemical FRET Rango-importin beta, RanGTP-induced dissociation; Potency, µM (series often up to 46.1 µM), inactives show top-dose activity change, negative = inhibition; hit rate 0.071% among 340,000; AID 540253, 2011; calls by dose curve; also: % of control where 0% means no effect; nearly all actives have a fitted effect of over 45% in size
#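 Rango/importin beta premix (0.1/0.25 uM final), PBS + 1 mM DTT + 0.02% Tween-20 + 0.1% BSA; cpd 5 min RT; FRET pre-read; + RanGTP-RCC1 (0.6 uM Ran, 2 mM GTP, 0.2 uM RCC1); 45 min RT; FRET post-read, ex 430, em 486/530 nm.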
# EPAC1 antag: qHTS for Antagonist of cAMP-regulated guanine nucleotide exchange factor 3 (EPAC1): primary screen. Rap guanine nucleotide exchange factor 3 (Homo sapiens), O95398. EPAC1 GEF assay, Rap1b-BODIPY-GDP exchange fluorescence. Potency, µM (doses to about 115 µM), for inactives: at the highest dose activity change, negative = inhibition, usual class: inhibitors. hit rate 0.14% among 360,000. AID 720709, 2013;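 also: plate controls were vehicle for no effect and positive control for full effect; nearly all actives have a fitted effect of over 50% in size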
# Rango-impB inh: qHTS Assay for Inhibitors of Rango (Ran-regulated importin-beta cargo) - Importin beta complex formation | Rango CFP/YFP FRET sensor + importin beta, 45 min | Potency, µM (series often up to 92.2 µM), for the others: at the top dose inhibition of complex formation | hit rate 0.031% among 340,000; calls by dose curve;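 also: 0% = DMSO wells and 100% = buffer wells lacking importin beta; nearly all actives have a fitted effect of over 15% in size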
#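 Inhibition scored from the CFP 486 nm/YFP 530 nm FRET ratio 45 min after adding 0.125 microM importin beta to 50 nM Rango biosensor preincubated 5 min with compound (room temperature, PBS with DTT, Tween-20, BSA). No-importin wells as positive control.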
# EPAC1 agonist: qHTS for Agonist of cAMP-regulated guanine nucleotide exchange factor 3 (EPAC1): primary screen; Potency, µM (top dose mostly 154 µM), for inactives: at the highest dose activation, most hits filed as activators; Rap guanine nucleotide exchange factor 3 (Homo sapiens), O95398; EPAC1 agonist qHTS, biochemical assay; response scale: 100% = response to 6.5 mM cAMP; hit rate 0.073% among 360,000; also: nearly all actives have a fitted effect of over 60% in size
#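 Normalized to 6.5 mM cAMP, activity reflects EPAC1-catalysed release of BODIPY-GDP from Rap1B, followed kinetically over 30 min at 480 nm excitation, 540 nm emission. Reaction contained 100 nM EPAC1, 250 nM Rap1B-BODIPY-GDP, 50 uM GDP.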
# EPAC2 antag: qHTS for Antagonist of cAMP-regulated guanine nucleotide exchange factor 2 (EPAC2): primary screen | Potency, µM (doses to about 114 µM), inactives show at the highest dose activity, negative = inhibition, usual class: inhibitors | hit rate 0.18% among 360,000 | EPAC2 GEF exchange of Rap1B-BODIPY-GDP, fluorescence; also: % is scaled to controls: 0 for no effect and ±100 for the full control effect; nearly all actives have a fitted effect of over 45% in size
# Starred values were filed as active, the others as inactive; i = inactive; ? = inconclusive; . = no result. Unless noted, calls follow the shape of the dose curve; as a rule, active = well fitted curve in the direction sought with a large enough effect; inconclusive = small, poorly fitted or top-dose-only effect, or another doubt; inactive = no such curve, though single readings can be large; an effect the other way counts as inactive or inconclusive. Potency is read from the fitted curve at half-maximal effect.
# Codes – A = EPAC2 agonist; B = Rango release inh; C = EPAC1 antag; D = Rango-impB inh; E = EPAC1 agonist; F = EPAC2 antag
Structure: CNC(=O)OC1CC2CC1[C@H]1CCCCN1C2=O (stereo not given in full)
  A: 12% | B: . | C: 1% | D: . | E: 9% | F: 3%

Structure: S=C(NCCCc1cnc[nH]1)NCCCN(Cc1ccc(Cl)cc1)c1ccc(Br)cn1
  A: 21% | B: . | C: -11% | D: . | E: 1% | F: -12%

Structure: CCCN1C(=O)c2ccccc2NC1c1ccc(Cl)c(Cl)c1 (stereo not given)
  A: 4% | B: 12% | C: -30% | D: 0% | E: 8% | F: 28µM*

Structure: O=S(=O)(Nc1ccccc1-c1ccccc1)c1ccccc1
  A: 17% | B: 2% | C: -19% | D: 2% | E: 12% | F: 50µM*

Structure: O=C(Nc1ccccc1N1CCCCC1)c1cnccn1
  A: 11% | B: -1% | C: -5% | D: 0% | E: 6% | F: 18µM*

Structure: CC1=NOC(=O)/C1=C\c1ccc(-c2cc(Cl)ccc2Cl)o1
  A: 1% | B: 14% | C: -12% | D: ? | E: 3% | F: 79µM*

Structure: COc1ccccc1C1CC(c2ccco2)=NN1c1ccccc1 (stereo not given)
  A: 18% | B: 16µM* | C: -12% | D: ? | E: 16% | F: -4%

Structure: Fc1ccc(C2=NN(c3ccccc3)C(c3ccco3)C2)cc1 (stereo not given)
  A: 10% | B: -19% | C: 7% | D: ? | E: -10% | F: -20%

Structure: COc1ccc(CCNC(=O)c2ccc(Br)o2)cc1Br
  A: 15% | B: . | C: -18% | D: . | E: -6% | F: -14%

Structure: O=C(CSc1nnc(-c2cccs2)n1Cc1ccco1)Nc1ccc2c(c1)OCO2
  A: 7.9µM* | B: -10% | C: -6% | D: -2% | E: -8% | F: 6%

Structure: CCc1ccc2c(c1)NC(=O)C2(C)Cc1ccc(C(F)(F)F)o1 (stereo not given)
  A: -10% | B: . | C: -21% | D: . | E: -24% | F: 20µM*

Structure: CCc1ccc2c(c1)NC(=O)C2(C)Cc1ccccc1 (stereo not given)
  A: -4% | B: . | C: -4% | D: . | E: -9% | F: -23%

Structure: Cn1nc(-c2ccccc2)c2nc3ccccc3nc21
  A: 100µM* | B: ? | C: 10% | D: ? | E: 9% | F: 291%

Structure: O=C(Nc1ccc(F)cc1)C(c1ccncc1)N1CCN(CC(=O)N2CCCC2)CC1 (stereo not given)
  A: -2% | B: . | C: -22% | D: . | E: 5% | F: 4%

Structure: CC(C)c1cc(Cn2c3ccccc3c(=O)n2C(C)Cn2cc(COc3ccccc3)nn2)on1 (stereo not given)
  A: 3% | B: . | C: 4% | D: . | E: 7% | F: 2%

Structure: O=C(NCc1cccc(F)c1)c1cccc2c1C(=O)c1ccc(N3CCC(Cc4ccccc4)CC3)cc1S2(=O)=O
  A: -75% | B: ? | C: 113% | D: ? | E: -69% | F: 117%

Structure: O=C(NCc1cccc(F)c1)c1cccc2c1C(=O)c1ccc(N3CCCC3)cc1S2(=O)=O
  A: ? | B: ? | C: 79% | D: ? | E: 28µM* | F: 124%

Structure: CC1CCN(c2ccc3c(c2)S(=O)(=O)c2cccc(C(=O)NCc4cccc(F)c4)c2C3=O)CC1
  A: -4% | B: ? | C: 62% | D: ? | E: 100µM* | F: i

Structure: COc1cc(NC(=O)Nc2nc(C(N)C3CCCCC3)cs2)cc(OC)c1OC (stereo not given)
  A: 6% | B: . | C: -10% | D: . | E: -13% | F: 4%

Structure: Nc1ccc(N2CCCCC2)c2nonc12
  A: 18% | B: -17% | C: 10µM* | D: 1% | E: -11% | F: ?

Structure: COC(=O)C[C@H]1CC[C@H](NC(=O)Nc2ccccc2)[C@@H](CO)O1
  A: 14% | B: . | C: 4% | D: . | E: 8% | F: 3%

Structure: CC1CCN(c2ccc3c(c2)S(=O)(=O)c2ccccc2C3=O)CC1
  A: 28% | B: ? | C: 40% | D: ? | E: 89µM* | F: 11%

Structure: O=C1c2ccccc2S(=O)(=O)c2cc(N3CCC4(CC3)OCCO4)ccc21
  A: 112µM* | B: ? | C: 2% | D: ? | E: 8% | F: 11%

Structure: CC(O)(c1cccnc1)c1nc(/C=C/c2ccccc2)cs1 (stereo not given)
  A: 13% | B: . | C: -12% | D: . | E: -6% | F: 9%

Structure: CCOC(=O)CC1=C(C(=O)OCC)C(c2cc(OC)c(OC)cc2OC)C(C#N)=C(N)O1 (stereo not given)
  A: -3% | B: 15µM* | C: 3% | D: ? | E: 6% | F: -1%

# Exported with tabs: entries from further up
canonical_smiles	EPAC2 agonist	Rango release inh	EPAC1 antag	Rango-impB inh	EPAC1 agonist	EPAC2 antag
Fc1ccc(C2=NN(c3ccccc3)C(c3ccco3)C2)cc1 (stereo not given)	10%	-19%	7%	?	-10%	-20%
COc1ccc(CCNC(=O)c2ccc(Br)o2)cc1Br	15%	.	-18%	.	-6%	-14%
O=C(CSc1nnc(-c2cccs2)n1Cc1ccco1)Nc1ccc2c(c1)OCO2	7.9µM*	-10%	-6%	-2%	-8%	6%

# New compounds follow:
# Codes – A = EPAC2 agonist; B = Rango release inh; C = EPAC1 antag; D = Rango-impB inh; E = EPAC1 agonist; F = EPAC2 antag
Structure: CCOC(=O)CC1=C(C(=O)OCC)C(c2ccc(OC)c(OC)c2)C(C#N)=C(N)O1 (stereo not given)
  A: 8% | B: -10% | C: 10% | D: ? | E: 11% | F: 21%

Structure: CN(C)c1ccc(/C=C/c2nc3ccccc3c(=O)n2-c2ccc(C(=O)O)cc2)cc1
  A: -29% | B: ? | C: 164% | D: ? | E: 63µM* | F: -10%

Structure: Oc1ccc2ccccc2c1-c1sc(Nc2ccccc2)n[n+]1-c1ccc(F)cc1
  A: -336% | B: 1% | C: ? | D: 52µM* | E: -79% | F: 50µM*

Structure: CC1(c2nnnn2Cc2ccccc2)CCC(=O)N1CCCn1ccnc1 (stereo not given)
  A: 6% | B: . | C: -18% | D: . | E: -1% | F: 2%

Structure: Cn1c(O)c(/C=C2\C=Nc3ccccc32)sc1=Nc1ccc(C(=O)O)cc1
  A: 2% | B: -20% | C: 1% | D: ? | E: -12% | F: -9%

Structure: O=C(Cc1ccccc1)Nn1c(O)c(/C=C2\C=Nc3ccccc32)sc1=S
  A: 100µM* | B: ? | C: -2% | D: ? | E: 89µM* | F: -4%

Structure: Cc1ccc(O)c(CNc2ccc(S(=O)(=O)Nc3nccs3)cc2)c1
  A: 2% | B: -4% | C: -15% | D: 0% | E: 3% | F: 22µM*

Structure: CC(=O)Nc1ccc(S(=O)(=O)Nc2nccs2)cc1
  A: -2% | B: 12% | C: -2% | D: 0% | E: 1% | F: -11%

Structure: COc1cc2cc(Oc3ccc4ccc(=O)oc4c3)c(=O)oc2cc1O
  A: 1% | B: ? | C: 50µM* | D: ? | E: 79µM* | F: 10%

Structure: Cc1ccc(NS(=O)(=O)c2ccc(C(=O)N3CC(C)CC(C)C3)cc2)cc1 (stereo not given)
  A: 4% | B: 2% | C: -12% | D: -1% | E: 100µM* | F: -18%

Structure: Cc1ccc(S(=O)(=O)Nc2ccc(C(=O)N3CCCC3)cc2)cc1
  A: 0% | B: 7% | C: -11% | D: 0% | E: 0% | F: 9%

Structure: COc1ccc(S(=O)(=O)N2CCC3CC2c2c(-c4ccc(C(F)(F)F)cc4)cccc23)cc1 (stereo not given)
  A: 5% | B: . | C: -5% | D: . | E: -10% | F: -2%

Structure: COc1cccc(-c2ccc(C#N)c(OC(=O)c3ccc(Cl)cc3)n2)c1
  A: 6.3µM* | B: 12% | C: 11% | D: 0% | E: 4% | F: 10%

# Source: PubChem
